Legend:
[1] = Plasma concentration time-course after single dose in NT1 model mice; details: for Cmax: mice
[2] = system: OX2R; test: EEG/EMG recording of sleep/wakefulness after single dose in NT1 model mice (orexin-tTA;TetO DTA); details: ZT5
[3] = Plasma concentration during infusion by osmotic pump
[4] = system: OX2R; test: EEG analysis of sleep stages during infusion by osmotic pump in orexin-tTA;TetO DTA mice
[5] = system: OX2R; test: DREM (direct transitions from wakefulness to REM sleep, murine analog of cataplexy) during infusion by osmotic pump
[6] = system: OX2R; details: cited from earlier work
[7] = system: OX2R; details: OX2R-expressed recombinant cells; cited from earlier work
[8] = 11.2 mg, individuals with NT1; cited from earlier work
[9] = system: OX2R; test: Maintenance of Wakefulness Test (MWT40) in individuals with NT1, Phase I single rising dose study; details: around one-third of the arousal-promoting concentration (20 ng/mL)
[10] = system: OX2R; details: OX2R-expressed recombinant cells; cited from earlier work; remark: listed apart in the source
[11] = system: OX2R; test: EEG/EMG recording of wakefulness with plasma concentration, determination of arousal-promoting plasma concentration in NT1 model mice (orexin/ataxin-3); details: for duration of potent arousal (maintenance of wakefulness for more than 75% in 10 min-bins): 1 mg/kg s.c.
[12] = Plasma concentration time-course in cynomolgus monkeys
[13] = system: OX2R; test: EEG/EMG recording of sleep/wakefulness in cynomolgus monkeys; details: ZT12
[14] = at or below maximum non-awakening plasma concentration, day 14
[15] = at or below maximum non-awakening plasma concentration, day 14, vs vehicle-treated
[16] = at or below maximum non-awakening plasma concentration, day 28
[17] = at or below maximum non-awakening plasma concentration, day 28, vs vehicle-treated
[18] = Dose 1 (around 90 ng/mL) and Dose 2 (around 320 ng/mL), day 14, vs vehicle-treated

| SMILES | Cmax ([1]; 0.03 mg/kg, oral) | maximum non-awakening dose ([2]; oral) [mg/kg] | total wakefulness time during the dark/light phase [4, 14] | duration of NREM sleep (episode) during the light phase [4, 15] | duration of wakefulness (episode) during the dark phase [4, 15] | number of episodes of NREM sleep during the light phase [4, 15] | number of episodes of wakefulness during the dark phase [4, 15] | mean number of DREM episodes during the dark and light phase [5, 15] | recruitment of β-arrestins [7] | calcium mobilization [10] | maximum non-awakening dose ([2]; subcutaneous) [mg/kg] | total wakefulness time during the dark/light phase [4, 16] | duration of NREM sleep (episode) during the light phase [4, 17] | duration of wakefulness (episode) during the dark phase [4, 17] | number of episodes of NREM sleep during the light phase [4, 17] | number of episodes of wakefulness during the dark phase [4, 17] | mean number of DREM episodes during the dark and light phase [5, 17] | further results |
| --- | --- | --- | --- | --- | --- | --- | --- | --- | --- | --- | --- | --- | --- | --- | --- | --- | --- | --- |
| CS(=O)(=O)N[C@H]1CCCN2C(=O)COc3nccnc3[C@H]3CC[C@H](CC3)OC[C@@H]12 | around 2.9 ng/mL | 0.03 | did not increase | increased | increased | significantly reduced | significantly reduced | significantly fewer | – | – | – | – | – | – | – | – | – | plasma concentration maintained ([3]; infusion, 1 mg/mL in pump, day 14 after implantation): 1.9 ng/mL |
| COC(=O)N1CCC[C@H](NS(C)(=O)=O)[C@@H]1CO[C@H]1CC[C@@H](c2ccccc2)CC1 | around 7.2 ng/mL | – | – | – | – | – | – | – | promote recruitment of β-arrestins | increase calcium mobilization | 0.03 | did not increase | increased | increased | significantly reduced | significantly reduced | significantly fewer | dose producing near complete wakefulness during MWT40 ([6]; individuals with NT1, single dose): ≥ 11.2 mg; arousal-promoting plasma concentration ([6]; individuals with NT1, around average plasma exposure level at 11.2 mg): 20 ng/mL; average plasma exposure level [8]: 20 ng/mL; maximum non-awakening concentration [9]: about 7 ng/mL; duration of potent arousal (maintenance of wakefulness for more than 75% in 10 min-bins) ([11]; dark phase, administered at ZT12): up to 70 min; duration of potent arousal (maintenance of wakefulness for more than 75% in 10 min-bins) ([11]; light phase, administered at ZT5): ≤ 90 min; arousal-promoting concentration (plasma) ([11]; mice, estimated from FIG. 1 and FIG. 2, 1 mg/kg): 20 to 40 ng/mL |
| CC(C)(O)C(=O)N1CC[C@H](NS(C)(=O)=O)[C@@H]1Cc1cccc(-c2cc(F)cc(F)c2)c1F | – | – | – | – | – | – | – | – | – | – | – | – | – | – | – | – | – | peak plasma concentration ([1]; 1 mg/kg oral (negligible wake-promoting effects)): 371.6 ng/mL; plasma concentration at the last time-point when it produced potent arousal ([1]; 10 mg/kg oral, 110 min after administration): 1128.9 ng/mL; wake-promoting effects ([2]; 1 mg/kg oral): negligible wake-promoting effects; last time-point of potent arousal after administration ([2]; 10 mg/kg oral): 110 min; minimum effective dose to produce arousal (wakefulness for more than 75% in 10 min-bins) ([2]; oral, doses 1, 3, 10 mg/kg): 10 mg/kg; Tmax (time of Cmax) ([12]; 3 mg/kg oral): around 1 h; Cmax ([12]; 3 mg/kg oral (non-awakening dose)): around 235 ng/mL; plasma concentration at 3.5 h after administration ([12]; 10 mg/kg oral): around 654.7 ng/mL; plasma concentration maintained ([3]; Dose 1 (7.5 mg/mL in pump), between 7 and 15 days after implantation): around 90 ng/mL; plasma concentration maintained ([3]; Dose 2 (17.5 mg/mL in pump), between 7 and 15 days after implantation): 320 ng/mL; plasma concentration relative to the maximum non-awakening plasma concentration ([3]; Dose 2, around 320 ng/mL): the same; arousal effect ([13]; 3 mg/kg oral, at and around Cmax and about 1 hour before/after Tmax): did not induce arousal effect; duration of arousal (wakefulness for more than 75% in 1 h-bins) ([13]; 10 mg/kg oral): around 3.5 h; duration of NREM sleep (episode) during the light phase [4, 18]: increased; duration of wakefulness (episode) during the dark phase [4, 18]: increased; number of episodes of NREM sleep during the light phase [4, 18]: significantly reduced; number of episodes of wakefulness during the dark phase [4, 18]: significantly reduced; cataplexy symptoms during the dark and light phase ([5]; doses at or below non-awakening plasma concentration, day 14): improved; mean number of DREM episodes during the dark and light phase ([5]; doses at or below non-awakening plasma concentration, day 14, vs vehicle-treated): significantly fewer |
| CC(C)(O)C(=O)N1CC(F)(F)[C@H](NS(C)(=O)=O)[C@@H]1Cc1cccc(-c2cc(F)cc(F)c2)c1F | – | 0.1 | – | – | – | – | – | – | – | – | – | did not increase | increased | increased | significantly reduced | significantly reduced | significantly fewer | Cmax ([1]; 0.1 mg/kg, oral): around 83.7 ng/mL |
| CO[C@@H]1CN(c2ncc(F)cn2)CC[C@@H]1[C@@H]1C[C@H]2CC[C@@H](C1)N2[C@@H](C(N)=O)C1CC1 | – | – | did not increase | a trend for increased | a trend for increased | significantly reduced | significantly reduced | significantly fewer | – | – | 0.03 | – | – | – | – | – | – | Cmax ([1]; 0.1 mg/kg as printed (blood sampled after oral 0.03 mg/kg)): around 3.3 ng/mL; plasma concentration maintained ([3]; infusion, 3 mg/mL in pump, day 14 after implantation): 2.8 ng/mL |
| COc1ccc(-c2cccc(C(=O)N(C)C)c2)cc1S(=O)(=O)Nc1cccc(NCCNC(=O)c2ccccc2N(C)C)c1 | – | – | – | – | – | – | – | – | promote recruitment of β-arrestins | increase calcium mobilization | – | – | – | – | – | – | – | – |

— US20260382570A1, “DOSING OF OREXIN TYPE 2 RECEPTOR AGONISTS” (published 2026)
